One compound from ChEMBL document CHEMBL1135438, “Synthesis and pharmacological characterization of novel analogues of the nicotinic acetylcholine receptor agonist (+/-)-UB-165” (J Med Chem, 2002) can be followed below.

Sequences of proteins named here, by UniProt entry; tags and fusion partners are left off. Residues count along the entry.
UniProt P09483, 31-630 limits assumed: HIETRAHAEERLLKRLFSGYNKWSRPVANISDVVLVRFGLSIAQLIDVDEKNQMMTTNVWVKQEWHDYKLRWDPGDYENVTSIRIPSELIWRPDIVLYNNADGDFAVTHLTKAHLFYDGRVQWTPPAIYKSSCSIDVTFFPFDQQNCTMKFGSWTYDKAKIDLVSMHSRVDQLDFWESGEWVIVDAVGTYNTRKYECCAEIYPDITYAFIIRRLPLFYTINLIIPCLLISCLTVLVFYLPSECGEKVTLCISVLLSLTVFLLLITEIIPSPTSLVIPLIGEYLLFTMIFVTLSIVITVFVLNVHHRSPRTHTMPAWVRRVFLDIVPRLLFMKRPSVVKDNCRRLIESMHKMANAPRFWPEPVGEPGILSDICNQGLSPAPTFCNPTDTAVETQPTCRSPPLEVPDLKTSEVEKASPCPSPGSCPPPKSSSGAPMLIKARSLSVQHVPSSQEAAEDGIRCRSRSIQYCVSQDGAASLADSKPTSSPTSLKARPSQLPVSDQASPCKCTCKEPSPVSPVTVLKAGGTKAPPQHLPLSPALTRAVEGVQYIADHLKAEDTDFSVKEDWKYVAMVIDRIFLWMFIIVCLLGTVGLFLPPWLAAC
UniProt P12390, 25-500 limits assumed: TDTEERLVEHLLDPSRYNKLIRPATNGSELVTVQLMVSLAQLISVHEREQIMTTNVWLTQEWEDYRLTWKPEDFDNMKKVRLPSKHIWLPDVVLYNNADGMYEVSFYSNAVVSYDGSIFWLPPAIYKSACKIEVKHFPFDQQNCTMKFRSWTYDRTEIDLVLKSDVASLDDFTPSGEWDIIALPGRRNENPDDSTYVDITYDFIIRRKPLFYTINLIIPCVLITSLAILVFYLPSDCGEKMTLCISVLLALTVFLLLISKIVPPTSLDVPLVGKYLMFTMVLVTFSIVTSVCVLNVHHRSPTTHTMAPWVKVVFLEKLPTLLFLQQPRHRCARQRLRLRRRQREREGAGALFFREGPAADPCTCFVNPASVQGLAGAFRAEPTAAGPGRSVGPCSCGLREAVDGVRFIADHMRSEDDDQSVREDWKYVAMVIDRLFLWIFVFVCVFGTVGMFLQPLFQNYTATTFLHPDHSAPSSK

The target in this assay is Neuronal acetylcholine receptor; alpha4/beta2 (Rattus norvegicus, UniProt P09483+P12390). Description: Binding affinity at rat brain Nicotinic acetylcholine receptor alpha4-beta2. A digest of the protocol:
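Rat brain P2 membranes (250 μg protein) competed against 10 nM (–)-[3H]nicotine, 30 min room temperature then 1 h at 4 °C; filtration. Nonspecific binding with 1 mM (–)-nicotine.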

As to `CC(=O)C1=CCCC2CCC1N2` (stereo unspecified), the affinity corresponds to a Ki of 1.25 nM.
